# Test results: PMC10572347, “Structure–Activity Relationships and Antiplasmodial Potencies of Novel 3,4-Disubstituted 1,2,5-Oxadiazoles” (International Journal of Molecular Sciences, 2023)
# Test system: P. falciparum NF54
# Experiment: In vitro microplate assay against P. falciparum (3H-hypoxanthine incorporation)
# Assay type: cell-based, Plasmodium falciparum
# Settings: L-6 cells vs P.f. NF54
# Protocol: In vitro activity against the erythrocytic stages of P. falciparum was determined using a ^3H-hypoxanthine incorporation assay, using the drug sensitive NF54 strain [37]. […] Serial drug dilutions of 11 3-fold dilution steps covering a range from 100 to 0.002 µg/mL were prepared. The 96-well plates were incubated in a humidified atmosphere at 37 °C, 4% CO2, 3% O2 and 93% N2. After 48 h, 0.05 mL of ^3H-hypoxanthine (=0.5 µCi) was added to each well of the plate. The plates were incubated for a further 24 h under the same conditions. The plates were then harvested with a Betaplate cell harvester (Wallac, Zurich, Switzerland). The red blood cells were transferred onto a glass fiber filter and washed with distilled water. The dried filters were inserted into a plastic foil with 10 mL of scintillation fluid and counted in a Betaplate liquid scintillation counter (Wallac, Zurich, Switzerland). The IC50 values were calculated from sigmoidal inhibition curves by linear regression using Microsoft Excel. Chloroquine (Sigma C6628) was used as control.
substance,measurement,value
"N-[4-(4-Fluorophenyl)-3-(trifluoromethyl)-1,2,5-oxadiazol-3-yl]benzamide [Compound 50]",S.I. = IC50 (Cyt.)/IC50 (P.f.NF54),0.852
